# From patent US20180066015A1, “INHIBITORS OF GROWTH FACTOR ACTIVATION ENZYMES” (Washington University, published 2018)
# T1: matriptase (Charles Craik, UCSF), recombinant (Homo sapiens (Human), UniProt Q9Y5Y6)
# T1 sequence: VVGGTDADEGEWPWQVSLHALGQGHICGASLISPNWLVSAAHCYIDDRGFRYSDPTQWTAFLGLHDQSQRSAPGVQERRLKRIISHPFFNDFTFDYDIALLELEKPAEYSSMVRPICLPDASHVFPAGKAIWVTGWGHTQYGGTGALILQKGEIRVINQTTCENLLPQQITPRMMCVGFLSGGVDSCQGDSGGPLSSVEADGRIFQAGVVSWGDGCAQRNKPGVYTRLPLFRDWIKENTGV
# Biological target: T1, matriptase (Charles Craik, UCSF), …
# Experiment: fluorogenic inhibition assay
# Protocol: (§1) Inhibitors (11-pt serial dilutions, 0-20 μM final concentration in reaction) were serially diluted in DMSO (2% DMSO final concentration) and then mixed with either recombinant serine protease domain of HGFA [Z. Han, P. K. Harris, D. E. Jones, R. Chugani, T. Kim, M. Agarwal, W. Shen, S. A. Wildman, J. W. Janetka, Acs Med Chem Lett 2014, 5, 1219-1224], matriptase (Charles Craik, UCSF) or hepsin* (#4776-SE-010, R&D Systems, Minneapolis, Minn.) in black 384 well plates (Corning #3575. Corning, N.Y.). […] The final substrate concentrations for all assays were at the Kₘ for the respective enzymes. Changes in fluorescence (excitation at 380 nm and emission at 460 nm) were measured at room temperature over time in a Biotek Synergy 2 plate reader (Winnoski, Vt.). Using GraphPad Prism version 6.04 software program, (GraphPad Software, San Diego, Calif., www.graphpad.com), a four parameter curve fit was used to determine the inhibitor IC₅₀s from a plot of the mean reaction velocity versus the inhibitor concentration. The IC₅₀ values represent the average of three separate experimental determinations.
row,Ki,Binder
1,27.9 nM,LLR (N-terminal acetyl; C-terminal ketothiazole (kt)) [Ac-LLR-kt]

# Biological target: T1, matriptase (Charles Craik, UCSF), …
# Experiment: fluorogenic inhibition assay
# Remark: another data set of the same source
# Protocol: as §1
# Fluorescent inhibitor and chromogenic proteolytic assays were performed in general accordance with the procedures described in Example 4 for compounds prepared in Examples 5 and 6.
row,Binder,Ki
1,WLR (free N-terminus (H-); D-Trp at position 1 (dW); C-terminal ketobenzothiazole-COOH) [H-dWLR-kbt-COOH],364 nM
2,WLR (free N-terminus (H-); C-terminal ketobenzothiazole (kbt)) [H-WLR-kbt],33.5 nM
3,WFR (free N-terminus (H-); C-terminal ketobenzothiazole (kbt)) [H-WFR-kbt],1870 nM
4,WLR (free N-terminus (H-); D-Trp at position 1 (dW); C-terminal ketobenzothiazole (kbt)) [H-dWLR-kbt],34.6 nM

# More lines, now with the values ahead:
row,Ki,Binder
1,1210 nM,WLR (free N-terminus (H-); C-terminal ketobenzothiazole-COOH) [H-WLR-kbt-COOH]
2,135 nM,WFR (free N-terminus (H-); D-Trp at position 1 (dW); C-terminal ketobenzothiazole (kbt)) [H-dWFR-kbt]
3,3.3 nM,RLR (free N-terminus (H-); C-terminal ketobenzothiazole (kbt)) [H-RLR-kbt]
